Values of other authors, collected in patent publication US20240058331A1, “COMBINATION THERAPIES FOR TREATMENT OF CIRRHOSIS WITH PORTAL HYPERTENSION” (priority 2022, published 2024).
pIC50: −log10 of the molar value.

Protein sequences, listed by entry. Tags and fused reporters are not part of them. Residues count along the entry.
UniProt P25101, 21-427: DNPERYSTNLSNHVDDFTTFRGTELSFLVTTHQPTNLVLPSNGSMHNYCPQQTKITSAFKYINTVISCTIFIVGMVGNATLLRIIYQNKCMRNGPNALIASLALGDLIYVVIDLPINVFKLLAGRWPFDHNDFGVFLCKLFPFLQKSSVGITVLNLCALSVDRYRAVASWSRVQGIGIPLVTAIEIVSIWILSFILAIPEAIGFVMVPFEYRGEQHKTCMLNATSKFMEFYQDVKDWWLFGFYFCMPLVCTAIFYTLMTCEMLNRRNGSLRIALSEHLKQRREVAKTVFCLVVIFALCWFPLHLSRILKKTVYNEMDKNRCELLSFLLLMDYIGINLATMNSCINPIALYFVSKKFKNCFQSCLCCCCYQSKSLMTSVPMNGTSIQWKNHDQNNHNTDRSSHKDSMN

Target: endothelin (ETA) receptor (Homo sapiens, UniProt P25101)
Conditions: read-out: ETA IC50

Compound: COc1nc(C)cnc1NS(=O)(=O)c1cccnc1-c1ccc(-c2nnco2)cc1 [Zibotentan]
- pIC50: 7.89
